According to PubChem BioAssay AID493222 (Johns Hopkins Ion Channel Center, 2011):
The list shows a part of the results, in another mix than the full data. Activity calls are given as the source filed them.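 How the source made its calls: active means mean of duplicate membrane potential ratios lying over 3 SD above or below the buffer control mean, so actives fall on both sides; inactive means the rest.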

Experiment: membrane potential effects in parental HEK293, counter-screen for CHT inhibitor project, cell-based, membrane potential dye (AID 493222)
Conditions: choline response, at 10 µM

**Q.** Which ratio readout does the source give for CCc1nc2c(n1)c1c(non1O)c1c2no[n+]1[O-] here?
**A.** inactive: 0

**Q.** Which ratio readout does the source give for NC(=O)c1cc([N+](=O)[O-])cc([N+](=O)[O-])c1N here?
**A.** inactive: 0
